From patent US6818617B1 (Temple University- Of The Commonwealth System of Higher …, priority 1997, dated 2004)

Chains of the proteins cited; added tags and fusions are not shown. Residues count along the entry.
UniProt P13612, 34-1032: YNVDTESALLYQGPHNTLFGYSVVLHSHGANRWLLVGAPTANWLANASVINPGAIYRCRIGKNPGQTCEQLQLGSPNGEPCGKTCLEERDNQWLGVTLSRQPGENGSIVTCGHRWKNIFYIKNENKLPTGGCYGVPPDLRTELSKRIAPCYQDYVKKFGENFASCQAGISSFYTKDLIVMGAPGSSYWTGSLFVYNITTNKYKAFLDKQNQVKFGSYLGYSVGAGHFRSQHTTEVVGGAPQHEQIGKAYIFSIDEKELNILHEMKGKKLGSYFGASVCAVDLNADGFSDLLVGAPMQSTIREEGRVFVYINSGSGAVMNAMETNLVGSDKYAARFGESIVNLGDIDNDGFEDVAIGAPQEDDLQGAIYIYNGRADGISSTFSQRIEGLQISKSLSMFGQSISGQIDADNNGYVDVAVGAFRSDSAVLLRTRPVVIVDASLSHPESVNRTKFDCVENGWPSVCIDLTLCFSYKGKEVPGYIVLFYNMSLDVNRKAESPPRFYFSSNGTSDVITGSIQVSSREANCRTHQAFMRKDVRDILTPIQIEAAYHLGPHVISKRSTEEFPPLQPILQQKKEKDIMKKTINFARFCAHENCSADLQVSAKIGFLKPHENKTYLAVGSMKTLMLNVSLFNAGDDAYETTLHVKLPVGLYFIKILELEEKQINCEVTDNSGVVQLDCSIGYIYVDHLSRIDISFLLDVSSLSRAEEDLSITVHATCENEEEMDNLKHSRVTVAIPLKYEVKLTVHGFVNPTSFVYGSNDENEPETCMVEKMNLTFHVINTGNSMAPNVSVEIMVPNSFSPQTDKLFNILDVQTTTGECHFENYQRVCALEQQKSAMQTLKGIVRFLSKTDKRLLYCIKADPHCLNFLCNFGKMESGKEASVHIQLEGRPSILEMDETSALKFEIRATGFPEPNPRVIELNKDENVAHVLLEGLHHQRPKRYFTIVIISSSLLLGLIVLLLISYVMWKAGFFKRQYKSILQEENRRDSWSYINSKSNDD

Biological target: T1, α4β1 (Homo sapiens, UniProt P05556+P13612)
T1 construct: host or cells: Jurkat
Assay: Jurkat cell adhesion to immobilized VCAM-1
Type: cell-based
Method: Adhesion of cultured cells labeled with 5-chloromethylfluorescein diacetate (CMFDA) was performed as described earlier (Marcinkiewicz et al., Blood 90:1565-1575 (1997)). […] Wells were blocked by 1% BSA in HBSS buffer. Cells were labeled with fluorescein by incubation with 12.5 AM CMFDA in HBSS buffer containing 1% BSA at 37° C. by 15 min. Unbound label was removed by washing with the same buffer. Labeled cells (1×10^5 per sample) were added to the well in the presence or absence of inhibitors and incubated at 37° C. for 30 min. Unbound cells were removed by aspiration, the wells were washed and bound cells were lysed by adding 0.5% Triton X-100. In parallel the standard curve was prepared in the same plate from known concentrations of labelled cells. The plate was read using a Cytofluor 2350 fluorescence plate reader (Millipore, Bedford, Mass.) at 485 nm EX(excitation) filter and 530 nm (emmision) filter.
The cell adhesion assay (as described in Example 1) was used to study the inhibitory effect of the eluted fractions on Jurkat cell adhesion to immobilized VCAM-1 and on K562 cell adhesion to fibronectin. […]
The effect of each peptide on cell adhesion was determined as described above. […] Cells that attached to the plates were lysed with detergent, and fluorescence intensity was measured. Percent inhibition was measured at each concentration and IC50 was determined.

CSCC[C@H](N)C(=O)N[C@@H](CC(C)C)C(=O)N[C@@H](CC(=O)O)C(=O)NCC(=O)O [MLDG]
IC50: 5 mM
